Experimental data as given in patent US20150174144A1, “TETRACYCLINE COMPOUNDS FOR TREATING NEURODEGENERATIVE DISORDERS” (PARATEK PHARMACEUTICALS, INC., priority 2012, published 2015).

B1: IFN-β: beta interferon, approved MS therapy (protein, UniProt P01574 22-187, looked up)
Interferon beta: MSYNLLGFLQRSSNFQCQKLLWQLNGRLEYCLKDRMNFDIPEEIKQLQQFQKEDAALTIYEMLQNIFAIFRQDSSSTGWNETIVENLLANVYHQINHLKTVLEEKLEKEDFTRGKLMSSLHLKRYYGRILHYLKAKEYSHCAWTIVRVEILRNFYFINRLTGYLRN

What was measured:
MS = conditions: cited from earlier work
[1] = test system: animal models of MS and neuroprotection; test: Accepted animal models of MS and neuroprotection (Table 2); parameters: concentration or dose not given beside the values; conditions: in vivo

| Molecule | % Relapses eduction (MS; MS clinical studies) [%] | % lesion reduction (MS; MS clinical studies, gadolinium-enhancing MRI lesions) [%] | potential side effects (MS; human, in vivo) | % Inhibition Clinical Score [1] [%] | % Inhibition Demyelination [1] [%] | % Inhibition Inflammation [1] [%] |
| --- | --- | --- | --- | --- | --- | --- |
| interferon beta-1a [AVONEX ®] | 32 | 57 | Infection, seizure liver |  |  |  |
| B1 |  |  |  | 38 | 29 | 28 |
